Where “and” joins values, the source holds several entries; their conditions need not be identical. Identical values can stand only once.
Target: T1, β sliding clamp (Escherichia coli, UniProt P0A988)
T1 chain: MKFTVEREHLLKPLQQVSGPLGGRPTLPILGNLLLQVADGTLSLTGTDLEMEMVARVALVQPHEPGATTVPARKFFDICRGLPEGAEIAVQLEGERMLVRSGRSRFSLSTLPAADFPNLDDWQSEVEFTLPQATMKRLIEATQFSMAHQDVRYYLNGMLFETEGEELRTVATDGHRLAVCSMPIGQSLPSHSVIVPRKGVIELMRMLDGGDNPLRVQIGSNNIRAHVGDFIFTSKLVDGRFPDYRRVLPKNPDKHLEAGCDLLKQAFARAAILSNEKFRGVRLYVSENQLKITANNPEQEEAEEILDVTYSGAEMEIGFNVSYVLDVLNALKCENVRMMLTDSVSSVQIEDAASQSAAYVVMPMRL
Assay: pyrene fluorescence intensity titration

- Kd: 3.8 nM and 2.7 nM and 2.1 nM
B1: γ clamp loader complex (protein)
chain 1: SYQVLARKWRPQTFADVVGQEHVLTALANGLSLGRIHHAYLFSGTRGVGKTSIARLLAKGLNCETGITATPCGVCDNCREIEQGRFVDLIEIDAASRTKVEDTRDLLDNVQYAPARGRFKVYLIDEVHMLSRHSFNALLKTLEEPPEHVKFLLATTDPQKLPVTILSRCLQFHLKALDVEQIRHQLEHILNEEHIAHEPRALQLLARAAEGSLRDALSLTDQAIASGDGQVSTQAVSAMLGTLDDDQALSLVEAMVEANGERVMALINEAAARGIEWEALLVEMLGLLHRIAMVQLSPAALGNDMAAIELRMRELARTIPPTDIQLYYQTLLIGRKELPYAPDRRMGVEMTLLRALAFHPRMPLPEPEVPRQSFAPVAPTAVMTPTQVPPQPQSAPQQAPTVPLPETTSQVLAARQQLQRVQGATKAKKSEPAAATRARPVNNAALERLASVTDRVQARPVPSALEKAPAKKEAYRWKATTPVMQQKEVVATPKALKKALEHEKTPELAAKLAAEAIERDPWAAQVSQLSLPKLVEQVALNAWKEESDNAVCLHLRSSQRHLNNRGAQQKLAEALSMLKGSTVELTIVEDDNPAVRTPLEWRQAIYEEKLAQARESIIADNNIQTLRRFFDAELDEESIRPI
chain 2: MIRLYPEQLRAQLNEGLRAAYLLLGNDPLLLQESQDAVRQVAAAQGFEEHHTFSIDPNTDWNAIFSLCQAMSLFASRQTLLLLLPENGPNAAINEQLLTLTGLLHDDLLLIVRGNKLSKAQENAAWFTALANRSVQVTCQTPEQAQLPRWVAARAKQLNLELDDAANQVLCYCYEGNLLALAQALERLSLLWPDGKLTLPRVEQAVNDAAHFTPFHWVDALLMGKSKRALHILQQLRLEGSEPVILLRTLQRELLLLVNLKRQSAHTPLRALFDKHRVWQNRRGMMGEALNRLSQTQLRQAVQLLTRTELTLKQDYGQSVWAELEGLSLLLCHKPLADVFIDG
chain 3: MRWYPWLRPDFEKLVASYQAGRGHHALLIQALPGMGDDALIYALSRYLLCQQPQGHKSCGHCRGCQLMQAGTHPDYYTLAPEKGKNTLGVDAVREVTEKLNEHARLGGAKVVWVTDAALLTDAAANALLKTLEEPPAETWFFLATREPERLLATLRSRCRLHYLAPPPEQYAVTWLSREVTMSQDALLAALRLSAGSPGAALALFQGDNWQARETLCQALAYSVPSGDWYSLLAALNHEQAPARLHWLATLLMDALKRHHGAAQVTNVDVPGLVAELANHLSPSRLQAILGDVCHIREQLMSVTGINRELLITDLLLRIEHYLQPGVVLPVPHL
modifications: β E299C-pyrene, ATP

Reference: publication PMC6997377 (2020)
